The source of these data is PubChem BioAssay AID504332 (National Center for Advancing Translational Sciences (NCATS), 2011).

Amino acid sequences for entries named in this document (tags omitted). A change or cut given only in a name is not applied to a line headed by its entry.
UniProt Q96KQ7: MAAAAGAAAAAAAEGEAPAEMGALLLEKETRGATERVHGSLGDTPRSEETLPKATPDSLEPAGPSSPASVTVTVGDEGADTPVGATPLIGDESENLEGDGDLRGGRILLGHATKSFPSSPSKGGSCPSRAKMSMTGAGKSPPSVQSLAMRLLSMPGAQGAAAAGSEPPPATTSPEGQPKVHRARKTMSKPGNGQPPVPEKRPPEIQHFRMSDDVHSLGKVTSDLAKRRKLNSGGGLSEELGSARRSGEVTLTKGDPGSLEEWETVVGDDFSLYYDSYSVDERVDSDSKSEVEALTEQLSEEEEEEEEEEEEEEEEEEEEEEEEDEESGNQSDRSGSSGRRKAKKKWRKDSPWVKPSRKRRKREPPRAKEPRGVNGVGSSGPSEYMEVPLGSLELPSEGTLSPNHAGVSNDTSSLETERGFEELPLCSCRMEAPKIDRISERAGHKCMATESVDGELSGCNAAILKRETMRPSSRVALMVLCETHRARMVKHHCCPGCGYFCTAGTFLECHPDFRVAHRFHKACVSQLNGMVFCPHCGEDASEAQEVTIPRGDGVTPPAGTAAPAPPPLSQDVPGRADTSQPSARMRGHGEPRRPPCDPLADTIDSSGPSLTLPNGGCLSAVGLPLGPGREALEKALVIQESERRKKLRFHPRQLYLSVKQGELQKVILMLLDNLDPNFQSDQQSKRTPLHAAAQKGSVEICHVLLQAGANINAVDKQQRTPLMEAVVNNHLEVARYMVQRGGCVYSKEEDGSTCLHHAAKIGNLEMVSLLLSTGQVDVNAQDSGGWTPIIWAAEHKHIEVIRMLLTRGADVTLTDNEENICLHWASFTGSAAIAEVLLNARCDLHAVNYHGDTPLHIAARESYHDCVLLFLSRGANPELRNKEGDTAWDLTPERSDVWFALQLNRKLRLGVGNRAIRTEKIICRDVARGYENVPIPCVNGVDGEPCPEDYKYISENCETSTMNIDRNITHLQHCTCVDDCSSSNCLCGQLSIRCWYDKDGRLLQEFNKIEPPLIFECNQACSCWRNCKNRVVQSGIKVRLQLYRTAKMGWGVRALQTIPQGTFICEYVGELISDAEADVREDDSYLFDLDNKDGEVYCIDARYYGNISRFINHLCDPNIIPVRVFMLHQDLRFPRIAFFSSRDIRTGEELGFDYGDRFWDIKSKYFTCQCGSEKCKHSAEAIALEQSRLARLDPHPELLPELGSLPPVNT

“And” between values parts separate entries of the source, which are not always exact repeats. Identical values can stand only once. Only a part is listed here, and it is no random draw. Results filed as inconclusive are left out. The source made the active and inactive calls. Calls follow the shape of the dose curve; as a rule, active = well fitted inhibition curve with a large enough effect; inconclusive = small, poorly fitted or top-dose-only effect; inactive = no such curve, though single readings can be large or run the other way.
% is scaled to controls: 0 for no effect and ±100 for the full control effect; potency is read from the fitted curve at half-maximal effect.

The target in the experiment is Histone-lysine N-methyltransferase EHMT2 (Homo sapiens) (UniProt Q96KQ7). Put plainly: qHTS Assay for Inhibitors of Histone Lysine Methyltransferase G9a. Also: nearly all actives have a fitted effect of over 75% in size. The note with it: G9a H3K9 monomethylation, AlphaScreen, 2 h; series mostly up to 102 µM; activity, negative = inhibition: at the top concentration.
Consider `O=P(Nc1nccs1)(c1ccccc1)c1nc2ccccc2s1` (configuration not stated), for which the Potency is active: 1.26 µM.
As to `O=P(Nc1nccs1)(Oc1ccccc1)Oc1ccccc1`, the “activity, negative = inhibition” value was inactive: -14.1% [at 59 µM].
The same measure, in the same setting: next, `CCOP1(=S)c2c(C)nn(CCC#N)c2N=C(c2ccccc2F)N1C` (configuration not stated): inactive: -5.87% [at 12.7 µM]; `O=C(O)COc1ccc([As](=O)(O)O)cc1[N+](=O)[O-]`: inactive: -40.5%.
For `Nc1ccccc1[As](=O)(O)c1ccccc1`, the “activity, negative = inhibition” value is inactive: 5.02%.
Take `NC(=O)Nc1ccc([As](=O)(O)O)cc1`: the Potency entry was “inactive”.
`CCOP1(=S)c2c(C)nn(CCC#N)c2N=C(c2ccc(F)cc2)N1C` (configuration not stated): the Potency is active: 10 µM.
Consider `CN(C(=O)Cc1ccccc1)[C@@H]1CC[C@]2(CCCO2)C[C@H]1N1CCCC1`, for which the “activity, negative = inhibition” value was inactive: 10.7% [at 59 µM].
Consider `N#CCCN(C(=O)COC(=O)C(O)(c1ccccc1)c1ccccc1)c1ccc(F)cc1`, for which the “activity, negative = inhibition” value is inactive: -29.3%.
`CS(=O)(=O)c1ccc(Cl)c(NC(=O)COC(=O)C(O)(c2ccccc2)c2ccccc2)c1`: the “activity, negative = inhibition” value was inactive: 17.1%.
On the same count and under the same terms, next, `COc1cc(C(=O)NCC2(N3CCOCC3)CCCCC2)cc(Cl)c1OC(C)C`: inactive: -5.23%.
For the compound `O=[As](O)(O)c1cccnc1`, the Potency was active: 39.8 µM.
Consider `CN(C(=O)Cc1ccc(Cl)c(Cl)c1)[C@@H]1CC[C@]2(CCCO2)C[C@H]1N1CCCC1`, for which the “activity, negative = inhibition” value is inactive: 38.4% [at 59 µM].
Same read-out and setting: next, `O=[As](O)(c1cccc(O)c1)c1cccc(O)c1`: inactive: 8.39%.
The same measure, in the same setting: next, `Cc1cccc(OCC(=O)OC2CN3CCC2CC3)c1` (configuration not stated): inactive: -27.1% [at 59 µM].
Same read-out and setting: next, `CCCOP(=S)(Nc1nc(N)cc(=O)[nH]1)OCCC`: inactive: 13.7%.
With `Cc1ccc(NCCc2c([N+](=O)[O-])cc([N+](=O)[O-])cc2[N+](=O)[O-])cc1`, the Potency is active: 11.2 µM.
Take `CCOP(=O)(Nc1cccc2ccccc12)OCC`: the “activity, negative = inhibition” value is inactive: -70.6%.
On the same count and under the same terms, the result for `COc1cc(C2NCCC3(OCCO3)C2(C)C)cc(OC)c1OC` (configuration not stated) reads inactive: 16.4% [at 59 µM].
Regarding `CN(CCCl)Cc1cc(Cl)c(NC2=NCCN2)c(Cl)c1`, the Potency is active: 39.8 µM and active: 9.47 µM.
Turning to `CCOP(=O)(Nc1ccc(C)cn1)OCC`, the “activity, negative = inhibition” value is inactive: -1.3%.
On the same count and under the same terms, the result for `CCOP(=O)(NC(=NC(C)c1ccccc1)NC(C)c1ccccc1)OCC` (configuration not stated) reads inactive: -1.39%.
The same measure, in the same setting: the result for `CCC1=CC2Cc3nc4ccc(Cl)cc4c(N)c3C(C1)C2` (configuration not stated) reads inactive: -10.9% [at 0.501 µM].
Still for that read-out and setting: next, `O=P1(Nc2ccccn2)COc2ccccc2OC1`: inactive: -23.9% [at 12.7 µM].
As to `CC(C)(C)C(=O)NC(Sc1ncccn1)C(Cl)(Cl)Cl` (configuration not stated), the Potency is active: 50.1 µM.
Still for that read-out and setting: next, `Clc1n[nH]nc1-c1nn[nH][15n]1`: active: 22.4 µM.
Take `COc1ccccc1CNC(=O)COC(=O)C(O)(c1ccccc1)c1ccccc1`: the “activity, negative = inhibition” value is inactive: -7.71%.
With `O=[As](O)(c1ccccc1Br)c1ccccc1Br`, the “activity, negative = inhibition” value was inactive: 2.08%.
Same read-out and setting: next, `CC(C)/C=N\N=C(\N)N[N+](=O)[O-]`: inactive: -25.4%.
Turning to `CC1CCC(C(C)C)C(OP(=O)(Nc2ccccn2)c2ccccc2)C1` (configuration not stated), the Potency was active: 39.8 µM.
As to `Cc1nn(-c2ccccc2)c2c1P(=O)(N1CCOCC1)N(C)C(c1ccccc1)=N2` (configuration not stated), the activity, negative = inhibition was inactive: -4.18% [at 12.7 µM].
In the case of `O=C(/C=C/c1ccccc1)OC1CN2CCC1CC2` (configuration not stated), the Potency was active: 56.2 µM.
With `NS(=O)(=O)c1cccc(NC(=O)COC(=O)C(O)(c2ccccc2)c2ccccc2)c1`, the activity, negative = inhibition is inactive: -9.19% [at 12.7 µM].
On the same count and under the same terms, the result for `O=P1(Nc2ccc(Br)cn2)COc2ccccc2OC1` reads inactive: -42.9% [at 12.7 µM].
Same read-out and setting: next, `O=[As](O)(c1cccs1)c1cccs1`: inactive: 21.1% [at 0.501 µM]; `Nc1cccc([As](=O)(O)c2ccccc2)c1`: inactive: 3.41%.
`CCOC(=O)Nc1ccc([As](=O)(O)O)c(O)c1`: the “activity, negative = inhibition” value was inactive: -40.5%.
On the same count and under the same terms, next, `CCCCOc1ccc(C(=O)NCC2(N3CCCCC3)CCCCC2)cc1OC`: inactive: 8.63%.
For `CCOC(=O)Nc1cccc([As](=O)(O)O)c1`, the activity, negative = inhibition was inactive: -0.328% [at 2.33 µM].
In the case of `Cc1cc(SC(NC=O)C(Cl)(Cl)Cl)ncn1` (configuration not stated), the Potency was active: 3.55 µM.
Consider `COP1(=S)c2c(C)nn(CCC#N)c2N=C(c2ccc(F)cc2)N1C` (configuration not stated), for which the activity, negative = inhibition was inactive: 5.03% [at 12.7 µM].
Turning to `O=C(Nc1ccncc1[N+](=O)[O-])c1ccc([N+](=O)[O-])cc1[N+](=O)[O-]`, the “activity, negative = inhibition” value is inactive: -14.7%.
As for `O=C(COc1ccccc1)OC1CN2CCC1CC2` (configuration not stated), the activity, negative = inhibition was inactive: -47% [at 12.7 µM].
Turning to `CCOC(=O)c1ccc(NC(=O)C(C)(CCl)SC)cc1` (configuration not stated), the Potency was active: 50.1 µM.
As for `O=C(OC1CN2CCC1CC2)c1cccc([N+](=O)[O-])c1` (configuration not stated), the “activity, negative = inhibition” value was inactive: -20.5%.
On to `CCC(C)N(CC(C)C)C(=S)SC(NC(C)=O)C(Cl)(Cl)Cl` (configuration not stated), for which the Potency was active: 22.4 µM.
Consider `O=C(OC1CN2CCC1CC2)C12CC3CC(CC(C3)C1)C2` (configuration not stated), for which the Potency was active: 56.2 µM.
For `Cc1c2c(nc3ccccc13)SC(C(Cl)Cl)C2` (configuration not stated), the “activity, negative = inhibition” value is inactive: 2.33%.
The same measure, in the same setting: next, `COc1ccc2nc(NP(=O)(c3ccccc3)c3ccccc3)sc2c1`: inactive: -32.8%; `COc1ccc(N/C(=N/P(=O)(N2CCOCC2)N2CCOCC2)N2CCOCC2)cc1`: inactive: -31.7%.
Consider `COc1cc(C(=O)NCC2(N3CCOCC3)CCCCC2)ccc1OCC(C)C`, for which the activity, negative = inhibition was inactive: 11.2% [at 12.7 µM].
On the same count and under the same terms, the result for `C[As](=O)(O)c1cccc(C(=O)O)c1` reads inactive: -5.57% [at 2.33 µM]; that for `Cc1ccc2nc3c(c(C)c2c1)CC(C(Cl)Cl)S3` (configuration not stated), inactive: 17.8% [at 59 µM].
With `Cc1ccc(OP(=O)(Nc2ccc([N+](=O)[O-])cn2)Oc2ccc(C)cc2)cc1`, the Potency is active: 28.2 µM.
As for `CC(C)c1ccc(OP(=O)(Nc2ccccn2)Oc2ccccc2F)cc1` (configuration not stated), the “activity, negative = inhibition” value is inactive: 9.19%.
As to `O=[N+]([O-])c1cc([N+](=O)[O-])c(-c2ccn[nH]2)s1`, the Potency is active: 50.1 µM.
Consider `CC(C)NC(=O)NP(=O)(Oc1ccccc1)Oc1ccccc1`, for which the activity, negative = inhibition is inactive: -7.38% [at 0.0925 µM].
